Assay results as given in ChEMBL document CHEMBL4364298 (J Med Chem, 2019).
pKi: −log10 of the molar value.

Protein sequences, listed by entry. Tags and fused reporters are not part of them.
UniProt P35367, whole entry: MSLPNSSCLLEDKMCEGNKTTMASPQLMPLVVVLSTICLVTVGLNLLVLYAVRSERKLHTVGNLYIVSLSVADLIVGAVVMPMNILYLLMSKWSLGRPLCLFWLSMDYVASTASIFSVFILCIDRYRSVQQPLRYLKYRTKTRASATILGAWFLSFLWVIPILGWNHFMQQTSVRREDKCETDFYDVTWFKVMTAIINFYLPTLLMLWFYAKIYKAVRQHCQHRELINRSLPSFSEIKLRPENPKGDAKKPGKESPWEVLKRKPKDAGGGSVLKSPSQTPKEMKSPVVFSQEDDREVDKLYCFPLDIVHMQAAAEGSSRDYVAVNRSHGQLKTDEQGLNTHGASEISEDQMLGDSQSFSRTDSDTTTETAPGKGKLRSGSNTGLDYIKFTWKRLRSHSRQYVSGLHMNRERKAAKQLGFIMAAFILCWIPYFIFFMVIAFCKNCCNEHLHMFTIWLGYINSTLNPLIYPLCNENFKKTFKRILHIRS

Molecular target: Histamine H1 receptor (Homo sapiens, UniProt P35367)
Assay: biochemical
Type: cell-based

With Clc1ccc2c(c1)CCc1cccnc1C2=C1CCN(Cc2cccnc2)CC1 as the compound, how does the pKi read?
The pKi was 8.30.

With Clc1ccc2c(c1)CCc1cccnc1C2=C1CCN(Cc2ccncc2)CC1 as the compound, how does the pKi read?
Its pKi is 8.10.

Clc1ccc2c(c1)CCc1cccnc1C2=C1CCN(Cc2ccccc2)CC1 was tested. Which pKi did it give?
The pKi was 8.40.

How did the pKi turn out when Clc1ccc2c(c1)CCc1cccnc1C2=C1CCN(CC2CC2)CC1 was run?
The pKi was 9.20.

With Clc1ccc2c(c1)CCc1cccnc1C2=C1CCN(C2CCC2)CC1 as the compound, how does the pKi read?
The pKi was 8.67.

How did the pKi turn out when Cc1cccc(CN2CCC(=C3c4ccc(Cl)cc4CCc4cccnc43)CC2)c1 was run?
The pKi was 8.10.

How did the pKi turn out when Clc1ccc2c(c1)CCc1cccnc1C2=C1CCN(Cc2ncccn2)CC1 was run?
The pKi was 8.50.

How did the pKi turn out when CCC(CC)CN1CCC(=C2c3ccc(Cl)cc3CCc3cccnc32)CC1 was run?
The pKi was 8.75.

With Cc1ccncc1CN1CCC(=C2c3ccc(Cl)cc3CCc3cccnc32)CC1 as the compound, how does the pKi read?
The pKi was 7.89.

With Clc1ccc2c(c1)CCc1cccnc1C2=C1CCN(Cc2ccccn2)CC1 as the compound, how does the pKi read?
The pKi was 8.50.

With Clc1ccc2c(c1)CCc1cccnc1C2=C1CCN(CC2CCC2)CC1 as the compound, how does the pKi read?
The pKi was 9.10.

Clc1ccc2c(c1)CCc1cccnc1C2=C1CCN(Cc2ccncn2)CC1 was tested. Which pKi did it give?
The pKi was 8.30.

With Clc1ccc2c(c1)CCc1cccnc1C2=C1CCN(CC2CCCC2)CC1 as the compound, how does the pKi read?
Its pKi is 8.90.

With Clc1ccc2c(c1)CCc1cccnc1C2=C1CCN(C2CC2)CC1 as the compound, how does the pKi read?
Its pKi is 8.50.

Clc1ccc2c(c1)CCc1cccnc1C2=C1CCN(C2CCCC2)CC1 was tested. Which pKi did it give?
Its pKi is 8.40.

With Clc1ccc2c(c1)CCc1cccnc1C2=C1CCN(CC2CCCCC2)CC1 as the compound, how does the pKi read?
Its pKi is 8.60.

With CC(C)N1CCC(=C2c3ccc(Cl)cc3CCc3cccnc32)CC1 as the compound, how does the pKi read?
Its pKi is 9.00.

How did the pKi turn out when Clc1ccc2c(c1)CCc1cccnc1C2=C1CCN(C2CCCCC2)CC1 was run?
Its pKi is 7.70.

With CCN1CCC(=C2c3ccc(Cl)cc3CCc3cccnc32)CC1 as the compound, how does the pKi read?
Its pKi is 9.38.

How did the pKi turn out when Cc1ncccc1CN1CCC(=C2c3ccc(Cl)cc3CCc3cccnc32)CC1 was run?
Its pKi is 8.05.

Cc1ccc(CN2CCC(=C3c4ccc(Cl)cc4CCc4cccnc43)CC2)cn1 was tested. Which pKi did it give?
The pKi was 8.12.
